Values quoted from earlier work as cited in patent US20240058336A1, “DOSING OF FEDRATINIB” (IMPACT BIOMEDICINES, INC., priority 2020, published 2024).
Structures can show the parent of a compound that is named as a salt.

Chains of the proteins cited; added tags and fusions are not shown.
UniProt O60674, whole entry V617F: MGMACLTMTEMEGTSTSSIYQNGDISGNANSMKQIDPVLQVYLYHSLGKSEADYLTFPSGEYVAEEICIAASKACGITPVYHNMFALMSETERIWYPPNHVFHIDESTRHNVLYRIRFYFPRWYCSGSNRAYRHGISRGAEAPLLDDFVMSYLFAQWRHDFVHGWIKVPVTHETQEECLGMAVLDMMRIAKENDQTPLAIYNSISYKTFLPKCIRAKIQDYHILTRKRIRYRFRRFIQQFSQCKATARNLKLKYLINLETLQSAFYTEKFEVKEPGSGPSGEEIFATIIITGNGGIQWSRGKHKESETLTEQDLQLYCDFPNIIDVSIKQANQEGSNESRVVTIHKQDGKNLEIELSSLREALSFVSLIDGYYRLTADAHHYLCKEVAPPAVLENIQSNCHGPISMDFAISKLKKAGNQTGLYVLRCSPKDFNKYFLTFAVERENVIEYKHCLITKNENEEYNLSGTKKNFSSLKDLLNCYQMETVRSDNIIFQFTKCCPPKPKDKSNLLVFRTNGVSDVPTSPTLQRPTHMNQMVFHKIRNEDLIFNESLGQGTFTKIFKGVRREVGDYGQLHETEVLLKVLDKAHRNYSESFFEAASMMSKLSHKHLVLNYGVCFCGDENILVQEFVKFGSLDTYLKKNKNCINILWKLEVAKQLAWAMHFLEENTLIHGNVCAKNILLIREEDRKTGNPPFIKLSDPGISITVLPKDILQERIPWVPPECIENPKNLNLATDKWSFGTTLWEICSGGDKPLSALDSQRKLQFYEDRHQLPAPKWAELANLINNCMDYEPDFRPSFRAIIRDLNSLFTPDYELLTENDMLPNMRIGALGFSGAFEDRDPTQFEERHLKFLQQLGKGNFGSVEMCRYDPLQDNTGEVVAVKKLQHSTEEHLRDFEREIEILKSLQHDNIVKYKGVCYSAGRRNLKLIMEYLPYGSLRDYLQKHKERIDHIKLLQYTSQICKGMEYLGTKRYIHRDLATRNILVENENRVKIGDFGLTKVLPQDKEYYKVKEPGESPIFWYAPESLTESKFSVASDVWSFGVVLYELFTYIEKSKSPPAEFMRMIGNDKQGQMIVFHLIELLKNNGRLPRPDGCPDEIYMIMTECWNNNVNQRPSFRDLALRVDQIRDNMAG

Legend:
JAK2 wild-type (WT) = JAK2 wild-type (WT) (Homo sapiens, UniProt O60674); settings: cited from earlier work
[1] = target: activated mutant JAK2V617F (Homo sapiens, UniProt O60674, V617F); settings: cited from earlier work

**Q.** Which kinase selectivity (JAK2 wild-type (WT); JAK2 versus JAK1, JAK3, TYK2) does the source give for `Cc1cnc(Nc2ccc(OCCN3CCCC3)cc2)nc1Nc1cccc(S(=O)(=O)NC(C)(C)C)c1` [fedratinib, N-tert-butyl-3-[(5-methyl-2-{[4-(2-pyrrolidin-1-ylethoxy)phenyl]amino}pyrimidin-4-yl)amino]benzenesulfonamide dihydrochloride monohydrate] here?
**A.** selective for JAK2 over JAK1, JAK3 and tyrosine kinase 2 (TYK2)

**Q.** And the “inhibition of JAK2 wild-type” value (JAK2 wild-type (WT))?
**A.** inhibits

**Q.** What about the “inhibition of JAK2V617F” value [1] of the same compound?
**A.** inhibits
